Results published in US20160229891A1, “SALT OF POLYPEPTIDE VACCINE, PREPARATION METHOD THEREFOR, AND PHARMACEUTICAL PREPARATION COMPRISING SAID SALT” (SHENZHEN SALUBRIS PHARMACEUTICALS CO. LTD, priority 2013, published 2016).
Like-named read-outs stand apart in the source and are kept apart here.

Key:
[1] = Determination of the stability of KIFGSLAFL and KIFGSLAFL acetate (purity by HPLC on storage); type: physicochemical; conditions: 25° C., RH 50%; for purity of sample by high-performance liquid chromatography: sterile condition; for stability, compared in words: 10 days, samples 3 and 4 versus samples 1 and 2, sample 1 versus samples 2 and 5
Excerpt: The condition for detecting the purity of target peptide by the analytical high-performance liquid chromatography was as follows: high-performance liquid chromatograph: Chuangxin TongHeng LC300, stationary phase: C18-bonded silica gel (250×4.6 mm, 5 μm), mobile phase: the mixed liquor of sodium dihydrogen phosphate solution 0.1 mol/L (adjusted the pH value of phosphoric acid to 3.0) and acetonitrile (with the volume ratio of 7:3), with the flow velocity of lmL/min and the detection wavelength of 230 nm. The elution time for target peptide was 10 min, approximately.
Studied the stability of the following samples under the sterile condition at 25° C. and RH 50%: Sample 1 was the amorphous solid product of embodiment 5. Sample 2 was the solution of embodiment 4, which was diluted to approximately 1 mg/mL with dimethyl sulfoxide and filtered through the filter membrane with the aperture of 0.2 microns. Sample 3 was the solid product of embodiment 3. Sample 4 was the solid product of embodiment 3, which was dissolved in dimethyl sulfoxide, diluted to approximately 1 mg/mL and filtered through the filter membrane with the aperture of 0.2 microns. Sample 5 was the solid product of embodiment 6. The purity of each sample was detected by high-performance liquid chromatography, and the results were as follows: […]

[2] = water for injection of 25° C., constant temperature shaker

Substance: KIFGSLAFL acetate [Sample 2]
- purity of sample by high-performance liquid chromatography ([1]; Day 0): 99.6%
- purity of sample by high-performance liquid chromatography ([1]; Day 5): 98.9%
- purity of sample by high-performance liquid chromatography ([1]; Day 10): 98.3%

Substance: KIFGSLAFL [Sample 4]
- stability, compared in words [1]: obviously inferior
- purity of sample by high-performance liquid chromatography ([1]; Day 0): 98.1%
- purity of sample by high-performance liquid chromatography ([1]; Day 5): 96.5%
- purity of sample by high-performance liquid chromatography ([1]; Day 10): 94.6%

Substance: KIFGSLAFL.H2SO4 [Sample 5]
- purity of sample by high-performance liquid chromatography ([1]; Day 0): 99.2%
- purity of sample by high-performance liquid chromatography ([1]; Day 5): 98.7%
- purity of sample by high-performance liquid chromatography ([1]; Day 10): 98.0%
- dissolving condition (dissolved completely / incompletely) ([2]; water 300 times): incompletely)
- dissolving time ([2]; water 300 times): >30 min (dissolved
- dissolving condition (dissolved completely / incompletely) ([2]; water 800 times): incompletely)
- dissolving time ([2]; water 800 times): >30 min (dissolved

Substance: KIFGSLAFL [Sample 3]
- stability, compared in words [1]: obviously inferior
- purity of sample by high-performance liquid chromatography ([1]; Day 0): 98.1%
- purity of sample by high-performance liquid chromatography ([1]; Day 5): 97.6%
- purity of sample by high-performance liquid chromatography ([1]; Day 10): 97.2%
- dissolving condition (dissolved completely / incompletely) ([2]; water 300 times): incompletely)
- dissolving time ([2]; water 300 times): >30 min (dissolved
- dissolving condition (dissolved completely / incompletely) ([2]; water 800 times): incompletely)
- dissolving time ([2]; water 800 times): >30 min (dissolved
